Two compounds from patent US12065428B2, “Anti-viral compounds” (Aligos Therapeutics, Inc., priority 2021, dated 2024) can be followed below.

Protein sequences, listed by entry. Tags and fused reporters are not part of them. Residues count along the entry.
UniProt P03303, 1538-1719: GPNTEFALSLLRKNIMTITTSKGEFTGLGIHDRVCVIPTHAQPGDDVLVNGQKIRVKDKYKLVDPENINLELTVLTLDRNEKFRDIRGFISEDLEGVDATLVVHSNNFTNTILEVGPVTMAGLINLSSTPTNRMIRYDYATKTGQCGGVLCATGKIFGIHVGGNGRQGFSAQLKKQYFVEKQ

In this experiment the target is T1, HRV3C (Human rhinovirus 14, UniProt P03303).
T1 construct: SARS-Cov-2 3CLpro and HRV3C Duplex Assay
Nature of the experiment: biochemical.

Where two headings read alike, the source gives them in different places.

In turn, `O=C(NC1CC1)C(=O)[C@H](C[C@@H]1CCNC1=O)NC(=O)[C@@H]1CC2(CCN1C(=O)[C@H]1C[C@@]13CCCc1ccccc13)CC2` (relative stereo) [Compound 34A, (S)—N—((S)-4-(cyclopropylamino)-3,4-dioxo-1-((S)-2-oxopyrrolidin-3-yl)butan-2-yl)-6-((1S*,2S*)-3′,4′-dihydro-2′H-spiro[cyclopropane-1,1′-naphthalene]-2-carbonyl)-6-azaspiro[2.5]octane-5-carboxamide] displayed an IC50 of more than 10 µM.
As for `O=C(NC1CC1)C(=O)[C@H](C[C@@H]1CCNC1=O)NC(=O)[C@@H]1CC2(CCN1C(=O)[C@@H]1C[C@]13CCCc1ccccc13)CC2` (relative stereo) [Compound 34B], the IC50 (HRV3C, duplex assay, 30 mins preincubation, class symbols, read-out: HRV IC50) lay within 2 to 20 µM.

The IC50 is the point on the concentration scale where inhibition reaches its midpoint.
